Measurements taken from PMC6314990, “∆^9-Tetrahydrocannabinol, a major marijuana component, enhances the anesthetic effect of pentobarbital through the CB1 receptor” (Forensic Toxicology, 2018).
“Also recorded” adds a separate entry of the source.

Test system: pentobarbital-induced sleep in mice
Test: Cannabinoid-induced potentiation of pentobarbital-induced sleep and effect of CB1 receptor antagonists
Format: in vivo, ddY mice
Settings: pentobarbital 40 mg/kg i.p.
Protocol: For the pharmacological studies, cannabinoids and antagonists were suspended in saline containing 1% Tween 80. Sodium pentobarbital was dissolved in saline and injected intraperitoneally (i.p.; 40 mg/kg) for the mice. Male ddY mice weighing 20–25 g were housed in groups of 8. All animals were kept in a temperature-controlled (25 °C) environment with a 12-h light–dark cycle (lights on at 7:00 a.m.) and received food and water ad libitum. […] One percent Tween 80-saline solution was injected instead of cannabinoids or antagonists for the vehicle treated group as a control.

Cc1c(C(=O)NN2CCCCC2)nn(-c2ccc(Cl)cc2Cl)c1-c1ccc(Cl)cc1 [SR141716A, N-(piperidin-1-yl)-5-(4-chlorophenyl)-1-(2,4-dichlorophenyl)-4-methyl-1H-pyrazole-3-carboxamide]
Effect of antagonist pretreatment on CBD-enhanced pentobarbital-induced sleep (SR141716A 2 or 5 mg/kg i.v. 10 min before CBD 10 mg/kg i.v.): not inhibited; also recorded: failed to inhibit
Effect of antagonist on potentiating effect of ∆9-THC on pentobarbital-induced sleep, low dose (antagonist 2 mg/kg i.v., ∆9-THC 10 mg/kg i.v.): attenuated
Effect of antagonist pretreatment on potentiation of pentobarbital-induced sleep by ∆9-THC (antagonist 2–10 mg/kg i.v. 10 min before ∆9-THC 10 mg/kg i.v.): decreased dose-dependently
Effect of antagonist alone (antagonist + Veh) on pentobarbital-induced sleeping time (without ∆9-THC): no change in pentobarbital-induced sleeping time
